From patent US11524048B2, “HMGB1 antagonist treatment of severe sepsis” (THE FEINSTEIN INSTITUTES FOR MEDICAL RESEARCH, priority 2019, dated 2022) come the findings set out here.

The test system of this experiment is HMGB1-induced TNF release, human primary macrophages. The experiment is described as follows: HMGB1-induced TNF release in human primary macrophages (ELISA). Format: cell-based. On the technique in general: In an ELISA, binding on a coated surface is turned into a signal by an enzyme label.

Molecules are shown by their SMILES.

Take `NC(=O)N(CCC(=O)O)NC(=O)[C@H](CO)NC(=O)[C@H](CO)NC(=O)N(N)Cc1ccccc1` [K883]: for the setting “Homo sapiens, Primary macrophage, 16 h, read-out: IC50, inhibition of HMGB1-induced TNF release”, the IC50 (commonly the concentration that inhibits the measured activity by half) is 1000 nM. In addition, the “inhibition of HMGB1-induced TNF secretion” value (human macrophages, FIG. 17A) was “causes inhibition”.
